The text below walks through data of patent US20240327493A1 (GEORGE MASON UNIVERSITY, priority 2023, published 2024).

This test relates to human PBMCs co-cultured with OVCAR8 cells. As to the kind of experiment: Co-culture of OVCAR8 cells and stimulated human PBMCs, 1:10 OVCAR8:PBMC ratio. The following applies: 24 hours, vs untreated co-culture control; for TNFα levels: ELISA, FIG. 10C; for IL-2 levels: FIG. 10B. The test is classed as cell-based. An excerpt: For this model, PBMCs and cancer cells were both stimulated prior to co-culture to promote expression of PD-1 and PD-L1, respectively.
Stimulation of the PBMCs causes them to release inflammatory cytokines including IL-2 and TNFα,
Therefore, co-culture experiments were repeated using a 1:10 ratio of OVCAR8: PBMCs to increase the dynamic range of the assay and improve statistical confidence. […] (FIG. 10D)
OVCAR8 cells, generously provided by the Gottesman Lab (National Institutes of Health, Bethesda, MD, USA), and MDA-MB-231 cells (American Type Culture Collection, Rockville, MD, USA) were cultured in Gibco RPMI 1640 media (ThermoFisher Scientific, Cat. No. 11-875-093) supplemented with 10% Gibco fetal bovine serum (ThermoFisher Scientific, Cat. No. 10437028), and 1% penicillin/streptomycin (10,000 U/mL pen, 10 mg/mL strcp) from MilliporeSigma (Burlington, MA, USA, Cat. No. P4333). Cells were cultured at 37° C. and 5% CO2. Passage number was kept below 3 for co-culture assay. Human peripheral blood mononuclear cells were purchased frozen from […] Technologies (Vancouver, Canada, Cat. No. 70025.2) from two female donors. PBMCs were thawed according to manufacturer's instructions one day before co-culture and cultured in the same media and conditions as cancer cell lines.
For co-culture experiments with excess PBMCs ratios, OVCAR8 cells were seeded at a density of 2×10^4 cells/mL on a 24-well plate and allowed to adhere overnight. The next day, cells were stimulated with 100 ng/mL IFNγ and two vials of human PBMCs were thawed. On Day 3, concentrations of PBMCs and OVCAR8 cells (harvested from a control well) were measured using the QuadCount Automated Cell Counter. The concentration of PBMCs required for a 1:10 OVCAR8:PBMC ratio was calculated from the OVCAR8 concentration. PBMCs were plated on a separate 24-well plate (1 mL/well) and stimulated with 5 μg/mL of anti-CD3 and 5 μg/mL of anti-CD28 for 30 minutes before drug treatment. […] After 30 minutes, media was removed from OVCAR8 wells without treatment, and replaced with 1 mL of treated PBMCs. After 24 hours, the supernatants were collected from each well, and centrifuged at 10,000×g for 5 minutes to remove any remaining cells.
For experiments analyzed via IL-2 PCR-ELISA, the levels of IL-2 in the collected supernatants were measured using the IL-2 Human ProQuantum Immunoassay Kit (ThermoFisher Scientific, Cat. No. A35603). Briefly, samples from co-culture experiments with excess OVCAR8 ratios were diluted 1:10 in assay buffer, and samples from co-culture experiments with excess PBMC ratios were diluted 1:5 in assay buffer. […]
Remaining samples from experiments with excess PBMC ratios were analyzed using TNFα (Cat. No. 430204) ELISA MAX Deluxe Sets (BioLegend, San Diego, CA, USA) according to manufacturer's instructions. […]
On the technique in general: In an ELISA, binding on a coated surface is turned into a signal by an enzyme label.

Take “rPD-L1: recombinant, full-length PD-L1 (R&D systems), control in the co-culture model [reference compound]”: the TNFα levels entry was “significantly decreased” and the IL-2 levels result was “significantly decreased”. For the setting “listed as recombinant PD-L1”, the TNFα levels entry is “significantly decrease cytokine levels” and the IL-2 levels entry is “significantly decrease cytokine levels”.
